Measured values: patent EP4840854A1, “PIPERIDINYL INDOLE DERIVATIVE, PREPARATION METHOD THEREFOR AND USE THEREOF” (dated 2026)
Like-named read-outs stand apart in the source and are kept apart here. Marks after values point to notes of the source that are not given here. One block for each compound: values may come before it.

Amino acid sequences for entries named in this document (tags omitted). Residues count along the entry.
UniProt P00751, 260-764 limits assumed: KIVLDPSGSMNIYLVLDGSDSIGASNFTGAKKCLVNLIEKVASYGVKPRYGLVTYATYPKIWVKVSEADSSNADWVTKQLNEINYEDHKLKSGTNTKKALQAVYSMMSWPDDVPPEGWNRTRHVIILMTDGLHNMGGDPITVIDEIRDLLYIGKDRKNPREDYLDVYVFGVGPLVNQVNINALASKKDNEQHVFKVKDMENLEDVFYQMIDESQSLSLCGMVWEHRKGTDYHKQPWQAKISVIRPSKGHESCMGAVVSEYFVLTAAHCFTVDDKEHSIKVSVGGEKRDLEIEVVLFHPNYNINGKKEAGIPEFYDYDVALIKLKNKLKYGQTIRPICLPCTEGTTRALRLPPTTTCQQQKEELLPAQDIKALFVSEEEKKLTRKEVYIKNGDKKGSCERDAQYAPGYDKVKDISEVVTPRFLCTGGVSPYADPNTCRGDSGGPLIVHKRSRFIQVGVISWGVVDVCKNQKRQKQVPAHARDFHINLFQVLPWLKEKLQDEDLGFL
UniProt P00751, 26-764 limits assumed: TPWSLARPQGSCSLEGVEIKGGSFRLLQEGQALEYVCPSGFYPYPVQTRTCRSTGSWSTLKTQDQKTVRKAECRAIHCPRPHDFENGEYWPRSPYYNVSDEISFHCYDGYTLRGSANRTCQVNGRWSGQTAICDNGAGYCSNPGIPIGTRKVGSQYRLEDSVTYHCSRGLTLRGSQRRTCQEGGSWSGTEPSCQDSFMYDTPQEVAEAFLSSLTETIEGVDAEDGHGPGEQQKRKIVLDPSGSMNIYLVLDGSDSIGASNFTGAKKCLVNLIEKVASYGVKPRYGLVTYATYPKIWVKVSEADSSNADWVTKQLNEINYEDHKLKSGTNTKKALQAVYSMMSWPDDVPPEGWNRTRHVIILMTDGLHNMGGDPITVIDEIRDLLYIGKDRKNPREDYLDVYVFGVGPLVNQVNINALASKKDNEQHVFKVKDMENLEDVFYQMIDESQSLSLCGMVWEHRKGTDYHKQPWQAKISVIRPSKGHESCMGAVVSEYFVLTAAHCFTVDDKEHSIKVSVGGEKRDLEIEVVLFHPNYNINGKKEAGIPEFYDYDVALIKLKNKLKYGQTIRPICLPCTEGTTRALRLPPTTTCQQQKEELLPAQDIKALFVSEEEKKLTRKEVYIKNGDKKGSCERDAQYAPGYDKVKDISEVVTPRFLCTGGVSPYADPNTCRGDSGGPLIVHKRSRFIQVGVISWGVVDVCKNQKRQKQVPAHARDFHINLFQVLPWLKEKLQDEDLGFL
UniProt Q91132, 23-649 partner limits assumed: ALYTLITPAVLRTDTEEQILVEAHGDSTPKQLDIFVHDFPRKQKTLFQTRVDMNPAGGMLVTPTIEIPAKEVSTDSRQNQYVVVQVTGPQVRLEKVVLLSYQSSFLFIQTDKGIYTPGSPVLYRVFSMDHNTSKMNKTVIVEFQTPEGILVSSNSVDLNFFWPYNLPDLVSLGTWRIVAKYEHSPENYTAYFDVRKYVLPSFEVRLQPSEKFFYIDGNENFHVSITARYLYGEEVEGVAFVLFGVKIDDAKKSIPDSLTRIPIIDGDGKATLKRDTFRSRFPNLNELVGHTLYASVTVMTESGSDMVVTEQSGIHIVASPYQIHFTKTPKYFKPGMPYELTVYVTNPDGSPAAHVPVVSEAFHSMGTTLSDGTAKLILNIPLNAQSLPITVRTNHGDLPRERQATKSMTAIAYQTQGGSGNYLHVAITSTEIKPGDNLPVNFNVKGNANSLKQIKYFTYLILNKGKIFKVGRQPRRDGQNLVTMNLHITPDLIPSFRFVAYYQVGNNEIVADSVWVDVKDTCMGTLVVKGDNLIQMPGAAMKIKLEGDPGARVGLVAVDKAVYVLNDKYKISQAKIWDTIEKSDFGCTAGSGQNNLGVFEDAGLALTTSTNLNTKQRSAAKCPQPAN
UniProt Q91132, 733-984 partner limits assumed: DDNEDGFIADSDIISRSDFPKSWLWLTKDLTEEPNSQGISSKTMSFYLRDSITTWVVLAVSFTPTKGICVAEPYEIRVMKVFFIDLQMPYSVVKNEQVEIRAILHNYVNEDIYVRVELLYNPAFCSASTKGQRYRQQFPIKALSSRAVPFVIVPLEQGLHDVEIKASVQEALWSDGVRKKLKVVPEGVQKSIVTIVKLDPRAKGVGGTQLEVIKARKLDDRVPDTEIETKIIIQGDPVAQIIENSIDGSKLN
UniProt Q91132, 1264-1642 partner limits assumed: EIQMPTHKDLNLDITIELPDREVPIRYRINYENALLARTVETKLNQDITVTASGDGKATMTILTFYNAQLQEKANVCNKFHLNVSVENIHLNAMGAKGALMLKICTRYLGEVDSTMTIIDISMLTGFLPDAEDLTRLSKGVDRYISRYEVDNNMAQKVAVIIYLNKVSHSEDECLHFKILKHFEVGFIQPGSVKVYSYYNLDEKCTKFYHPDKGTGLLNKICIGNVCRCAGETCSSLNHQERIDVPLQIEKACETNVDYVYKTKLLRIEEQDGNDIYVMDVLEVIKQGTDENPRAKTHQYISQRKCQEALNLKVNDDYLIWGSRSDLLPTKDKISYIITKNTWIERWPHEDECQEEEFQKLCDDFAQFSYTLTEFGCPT

Assays:
[1] = Stability test (acid stress, chiral and chemical purity); settings: change after 4 N HCl at 50°C for 12 h
rabbit erythrocytes = experiment: Rabbit erythrocyte hemolysis assay (rat serum with EGTA); settings: read-out: Rabbit Hemolysis Inhibition Rate(IC50); 2% rabbit erythrocytes, rat serum with EGTA/MgCl2, 37°C, 3 h
[2] = Mouse pharmacokinetic study; settings: BALB/c mice, 1 mg/kg; for F: bioavailability
complement factor B = complement factor B (Homo sapiens, UniProt P00751); experiment: Affinity assay (Octet biosensor, NTA sensors with immobilised CFB); settings: read-out: Affinity for factor B
CVF-Bb = CVF-Bb (Homo sapiens, UniProt P00751); experiment: CVF-Bb assay (C3a generation by the CVF-Bb C3 convertase); settings: read-out: CVF-Bb assay (IC50)
red blood cells = experiment: PNH-like hemolysis assay (CD55/CD59-blocked red blood cells in acidified serum); settings: for IC50: read-out: Hemolysis Inhibition Rate (%), hemolysis inhibition IC50, acidified serum pH 6.4, 37°C, 6 h
PK study in beagle dogs = settings: male beagle dogs, po (oral gavage), 1 mg/kg
[3] = Rat pharmacokinetic study; settings: SD rats, po (oral gavage), 1 mg/kg; for F: bioavailability
[4] = target: alternative complement pathway (Homo sapiens, UniProt P00751); experiment: AP deposition assay (WIESLAB Complement System Alternative Pathway, C5b-9 readout in human serum)
[5] = test system: alternative complement pathway; experiment: LPS-induced complement activation assay in mice (plasma C3b); settings: for plasma C3b levels compared with the model control group: result in words
[6] = read-out: AP complement deposition assay, Table 11
[7] = 60 mg/kg oral gavage about 1.5 h after LPS 2.5 mg/kg i.p., plasma about 6 h after administration
[8] = 120 mg/kg oral gavage about 1.5 h after LPS 2.5 mg/kg i.p., plasma about 6 h after administration

AUCINF obs ([2]; iv): 881.92 ng·h/mL
AUClast ([2]; iv): 877.37 ng·h/mL
C0/Cmax ([2]; iv): 806.67 ng/mL
Cl F obs ([2]; iv): 18.8982 mL/min/kg
MRTINF obs ([2]; iv): 1.91 h
MRTlast ([2]; iv): 1.85 h
T1/2 ([2]; iv): 1.66 h
VZ F obs ([2]; iv): 2.71914 L/kg
AUCINF _obs as percentage of that in the Compound I oral gavage group ([2]; oral gavage): approximately 22.7%
Cmax as percentage of that in the Compound I oral gavage group ([2]; oral gavage): approximately 44.8%
AUCINF obs ([2]; po (oral gavage)): 943.54 ng·h/mL
AUClast ([2]; po (oral gavage)): 937.46 ng·h/mL
C0/Cmax ([2]; po (oral gavage)): 349.90 ng/mL
Cl F obs ([2]; po (oral gavage)): 17.6638 mL/min/kg
MRTINF obs ([2]; po (oral gavage)): 2.70 h
MRTlast ([2]; po (oral gavage)): 2.62 h
T1/2 ([2]; po (oral gavage)): 1.73 h
Tmax ([2]; po (oral gavage)): 0.50 h
VZ F obs ([2]; po (oral gavage)): 2.65276 L/kg
F ([2]; po (oral gavage)): 106.99%
Kd (complement factor B; Table 1, Test Example 1): 19 nM
IC50 (CVF-Bb; Table 2, Test Example 2): 50.9 nM
SMILES: COc1cc(C)c2[nH]ccc2c1CN1CCCCC1c1ccc(C(=O)O)cc1C (centres unmarked)
IC50 (red blood cells): 624 nM

Chemical Purity [1]: -4.55%
Chiral Purity [1]: -0.33%
SMILES: [2H][C@]1(OCC)CCN(Cc2c(OC)cc(C)c3[nH]ccc23)[C@H](c2ccc(C(=O)O)cc2C)C1

Chemical Purity [1]: Unchanged
Chiral Purity [1]: -0.41%
AUCINF _obs (PK study in beagle dogs): 8568.02 ng·h/mL
AUClast (PK study in beagle dogs): 8509.98 ng·h/mL
C0/Cmax (PK study in beagle dogs): 1473.27 ng/mL
Cl_F_obs (PK study in beagle dogs): 2.327 mL/min/kg
MRTINF _obs (PK study in beagle dogs): 6.41 h
MRTlast (PK study in beagle dogs): 6.15 h
T1/2 (PK study in beagle dogs): 5.92 h
Tmax (PK study in beagle dogs): 0.42 h
Vz_F_obs (PK study in beagle dogs): 1.03781 L/kg
AUCINF obs ([2]; iv): 3982.96 ng·h/mL
AUClast ([2]; iv): 3975.81 ng·h/mL
C0/Cmax ([2]; iv): 1533.65 ng/mL
Cl F obs ([2]; iv): 4.1845 mL/min/kg
MRTINF obs ([2]; iv): 3.51 h
MRTlast ([2]; iv): 3.47 h
T1/2 ([2]; iv): 2.61 h
VZ F obs ([2]; iv): 0.944 L/kg
AUCINF obs ([2]; po (oral gavage)): 4146.24 ng·h/mL
AUClast ([2]; po (oral gavage)): 4134.29 ng·h/mL
C0/Cmax ([2]; po (oral gavage)): 780.43 ng/mL
Cl F obs ([2]; po (oral gavage)): 4.0197 mL/min/kg
MRTINF obs ([2]; po (oral gavage)): 4.61 h
MRTlast ([2]; po (oral gavage)): 4.54 h
T1/2 ([2]; po (oral gavage)): 2.83 h
Tmax ([2]; po (oral gavage)): 0.250 h
VZ F obs ([2]; po (oral gavage)): 0.98341 L/kg
F ([2]; po (oral gavage)): 104.10%
Kd (complement factor B; Table 9, Test Example 9): 5.63 nM
AUCINF _obs [3]: 2947.03 ng·h/mL
AUClast [3]: 2890.13 ng·h/mL
C0/Cmax [3]: 545.29 ng/mL
Cl_F_obs [3]: 5.9955 mL/min/kg
MRTINF _obs [3]: 5.13 h
MRTlast [3]: 4.74 h
T1/2 [3]: 3.49 h
Tmax [3]: 0.88 h
Vz_F_obs [3]: 1.71948 L/kg
F [3]: 136.82%
IC50 (CVF-Bb; Table 2, Test Example 2): 11.2 nM
IC50 (CVF-Bb; Table 10, Test Example 10): 12.8 nM
IC50 ([4]; read-out: AP complement deposition assay, Table 3): 58.5 nM
IC50 [4, 6]: 54.9 nM
SMILES: CCO[C@H]1CCN(Cc2c(OC)cc(C)c3[nH]ccc23)[C@H](c2ccc(C(=O)O)cc2C)C1
IC50 (red blood cells): 89.8 nM
hemolysis inhibition IC50 value, fold better than that of comparative compound D1 (red blood cells; relative to D1): approximately 2 fold
IC50 (rabbit erythrocytes): 548 nM
C3b content [5, 7]: 77.19 ± 8.93 ng/mL
plasma C3b levels compared with the model control group ([5]; 60 mg/kg oral gavage): significantly reduced
C3b content (ng/ml) [5, 8]: 73.16±5.36**^$ ng/ml
plasma C3b levels compared with the model control group ([5]; 120 mg/kg oral gavage): significantly reduced

Chemical Purity [1]: -0.29%
Chiral Purity [1]: Unchanged
SMILES: [2H]c1c(OC)c(CN2CC[C@H](OCC)C[C@H]2c2ccc(C(=O)O)cc2C)c2cc[nH]c2c1C

Chemical Purity [1]: Unchanged
Chiral Purity [1]: -0.55%
AUCINF _obs (PK study in beagle dogs): 8478.75 ng·h/mL
AUClast (PK study in beagle dogs): 8434.01 ng·h/mL
C0/Cmax (PK study in beagle dogs): 1249.67 ng/mL
Cl_F_obs (PK study in beagle dogs): 2.0262 mL/min/kg
MRTINF _obs (PK study in beagle dogs): 7.87 h
MRTlast (PK study in beagle dogs): 7.63 h
T1/2 (PK study in beagle dogs): 6.46 h
Tmax (PK study in beagle dogs): 0.83 h
Vz_F_obs (PK study in beagle dogs): 1.11549 L/kg
F (PK study in beagle dogs; relative oral bioavailability): 98.96%
Kd (complement factor B; Table 9, Test Example 9): 4.46 nM
IC50 (CVF-Bb; Table 10, Test Example 10): 16 nM
IC50 [4, 6]: 55.5 nM
SMILES: [2H]C([2H])([2H])C([2H])([2H])O[C@H]1CCN(Cc2c(OC)cc(C)c3[nH]ccc23)[C@H](c2ccc(C(=O)O)cc2C)C1
IC50 (rabbit erythrocytes): 568 nM

The remaining lines, values behind:

SMILES: [2H]c1[nH]c2c(C)cc(OC)c(CN3CC[C@H](OCC)C[C@H]3c3ccc(C(=O)O)cc3C)c2c1[2H]
Chemical Purity [1]: -4.25%
Chiral Purity [1]: -2.33%

SMILES: CCO[C@@H]1CCN(Cc2c(OC)cc(C)c3[nH]ccc23)[C@@H](c2ccc(C(=O)O)cc2C)C1
IC50 (rabbit erythrocytes): > 1000 nM

SMILES: CCO[C@H]1CCN(Cc2c(OC)cc(C)c3[nH]ccc23)[C@H](c2ccc(C(=O)O)cc2)C1
Chemical Purity [1]: -6.48%
Chiral Purity [1]: Unchanged
AUCINF obs ([2]; iv): 2216.50 ng·h/mL
AUClast ([2]; iv): 2132.34 ng·h/mL
Cl F obs ([2]; iv): 7.5193 mL/min/kg
MRTINF obs ([2]; iv): 5.44 h
MRTlast ([2]; iv): 4.38 h
T1/2 ([2]; iv): 5.77 h
VZ F obs ([2]; iv): 3.75547 L/kg
AUCINF obs ([2]; po (oral gavage)): 2708.24 ng·h/mL
AUClast ([2]; po (oral gavage)): 2609.90 ng·h/mL
Cl F obs ([2]; po (oral gavage)): 6.154 mL/min/kg
MRTINF obs ([2]; po (oral gavage)): 7.26 h
MRTlast ([2]; po (oral gavage)): 6.35 h
T1/2 ([2]; po (oral gavage)): 5.22 h
Tmax ([2]; po (oral gavage)): 0.500 h
VZ F obs ([2]; po (oral gavage)): 2.77822 L/kg
F ([2]; po (oral gavage)): 122.19%
AUCINF _obs [3]: 2170.66 ng·h/mL
AUClast [3]: 2028.57 ng·h/mL
Cl_F_obs [3]: 8.2385 mL/min/kg
MRTINF _obs [3]: 7.11 h
MRTlast [3]: 5.59 h
T1/2 [3]: 4.14 h
Tmax [3]: 0.79 h
Vz_F_obs [3]: 3.0164 L/kg
F [3]: 102.38%
IC50 (red blood cells): 165 nM
C3b content [5, 7]: 100.01 ± 14.44 ng/mL
plasma C3b levels compared with the model control group ([5]; 60 mg/kg oral gavage): decreasing trend
C3b content [5, 8]: 89.89 ± 16.73 ng/mL
plasma C3b levels compared with the model control group ([5]; 120 mg/kg oral gavage): significantly reduced

SMILES: [2H]c1c([2H])c([C@@H]2C[C@@H](OCC)CCN2Cc2c(OC)cc(C)c3[nH]ccc23)c(C)c([2H])c1C(=O)O
Chemical Purity [1]: Unchanged
Chiral Purity [1]: -0.41%
